Bioassay records from PubChem BioAssay.
Sampled rows, rich in hits. Any-hit rate of the full collection: about 13%.
ALDH1A1 block – ALDH1A1 (human) enzyme inhibition; 7.3% of 220,000 active; Purified ALDH1A1, NADH fluorescence, propionaldehyde substrate; Potency, µM (titrated, usually from 75.3 µM), usual class: inhibitors; AID 1030; P00352; active = well fitted inhibition curve with a large enough effect, not every such curve was filed as active; inconclusive = small, poorly fitted or top-dose-only effect, or another doubt; inactive = no such curve, though single readings can be large or run the other way
JMJD2E inh – JMJD2E (human) inhibition; B2RXH2; JMJD2E catalytic domain, FDH-coupled NADH fluorescence (FDH is formaldehyde dehydrogenase); Potency, µM (highest dose often 57.1 µM), most hits filed as inhibitors; 1.6% of 230,000 active; AID 2147; active = well fitted inhibition curve with a large enough effect, not every such curve was filed as active; inconclusive = small, poorly fitted or top-dose-only effect, or another doubt; inactive = no such curve, though single readings can be large or run the other way; also: nearly all actives have a fitted effect of over 50% in size
miR-21 reporter – miR-21 reporter, rising signal; HeLa miR-21 FLuc reporter, luciferase, 48 h; Potency, µM (doses to about 38.3 µM); 340,000 tested, under 10 active; AID 2288; active = well fitted rising curve with a large enough effect; inconclusive = small, poorly fitted or top-dose-only effect; inactive = no such curve, though single readings can be large or run the other way;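 further: miR-21 action dims this reporter so a rising signal means less miR-21 action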
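Using DMEM plus 10% FBS, HeLa miR-21-FLuc cells are incubated with test compounds (final up to about 40uM) for 48 hours; firefly luciferase signal is then imaged following reagent-mediated lysis.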
Sfp PPTase inh – inhibitors of Bacillus subtilis Sfp phosphopantetheinyl transferase; Potency, µM, usual class: inhibitors; Q9F4F7; Biochemical Sfp PPTase activity, qHTS; 3.5% of 310,000 active; AID 1490;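 also: the enzyme is Sfp with the accession as filed and its product quenches rhodamine fluorescence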
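With Hepes-Na pH 7.6 buffer containing 10 mM MgCl2, Sfp (15 nM) modified BHQ-2-YbbR (12.5 uM) using rhodamine-CoA (5 uM). Two reads 30 minutes apart at 525/598 nm yielded each well's rate.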
G9a block – G9a (human) methyltransferase inhibition. G9a H3K9 monomethylation, AlphaScreen, 2 h. AID 504332. Potency, µM (doses to about 102 µM), actives largely listed as inhibitors. Q96KQ7. 8.8% of 350,000 active; also: nearly all actives have a fitted effect of over 75% in size
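Compounds were preincubated with 20 nM G9a for 15 min, after which biotinylated H3K9 peptide (500 nM) and SAM (20 uM) started a 2 h room-temperature reaction. Monomethylated product was quantified by antibody-based AlphaScreen chemiluminescence.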
LMNA splice mod – modulators of lamin A splicing; HeLa LMNA splicing GFP/RFP minigene ratio, 48 h; Potency, µM (series often up to 46.1 µM), usual class: inhibitors; 0.01% of 200,000 active; active = well fitted inhibition curve with a large enough effect in the signal ratio, with a control signal flat, not every such curve was filed as active; inconclusive = small, poorly fitted or top-dose-only effect, or effect the other way, or a change in a side signal; the % refers to the signal ratio
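Read-out is the ratio of GFP to DsRed2 object intensity, acquired by 488 nm laser-scanning cytometry on HeLa lamin A-EGFP minigene reporter cells. Compound incubation 48 hrs at 37 °C in Opti-MEM with 2% FBS; DMSO 0.5% final.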
Hits are given with their value; – = inactive; ? = inconclusive; · = no result given; [ ] = remark or other dose. Unless noted, calls follow the shape of the dose curve; as a rule, active = well fitted curve in the direction sought with a large enough effect; inconclusive = small, poorly fitted or top-dose-only effect, or another doubt; inactive = no such curve, though single readings can be large; an effect the other way counts as inactive or inconclusive.

SMILES	ALDH1A1 block	JMJD2E inh	miR-21 reporter	Sfp PPTase inh	G9a block	LMNA splice mod
COc1ccc(-c2nc(Cn3c(=O)cc(-c4ccccc4)c4c(C)nn(C)c43)c(C)o2)cc1OC	·	·	–	·	–	?
CCOC(=O)CCN(c1ccccc1)S(=O)(=O)c1cc(-c2cc(C)no2)ccc1C	·	·	–	·	–	·
COC(=O)c1[nH]c2cccc(OC)c2c1NC(=O)CCN1CC(C)CC(C)C1 (configuration not stated)	?	?	–	–	50.1µM	–
COC(=O)c1[nH]c2cccc(OC)c2c1NC(=O)CCN1CCSCC1	?	–	–	–	–	?
COC(=O)c1[nH]c2cccc(OC)c2c1NC(=O)CCN1CCN(c2cccc(Cl)c2)CC1	–	?	–	–	50.1µM	?
CCCCCCCCCCCCCCCCCC(=O)NCCc1ccc(O)c(O)c1	–	–	·	–	·	·
COc1ccc(C(=O)NC(=S)N2CCOCC2)cc1[N+](=O)[O-]	·	·	–	–	35.5µM	·
COc1ccc(C(=O)NC(=S)N2CCOCC2)cc1Br	·	·	–	–	20µM	·
COc1ccc(C(=O)NC(=S)NCc2cccnc2)cc1Br	?	–	–	–	–	–
COc1ccc(C(=O)NC(=S)NCCO)cc1Br	?	–	–	?	44.7µM	–
Clc1ccc2nc(-c3ccc(Br)o3)c(Nc3ccc4c(c3)OCCO4)n2c1	·	·	–	·	–	·
O=C(CNC(=O)C1CCCCC1)NCc1ccco1	·	·	–	–	–	·
O=C1Cc2ccccc2Sc2ccccc21	?	?	–	–	–	–
Cc1ccc2c(c1)Sc1ccccc1CC2=O	17.8µM	?	–	–	–	–
COC(=O)Cc1[nH]n(-c2ccccc2)c(=O)c1C(C)=Nc1ccccc1	–	?	–	–	50.1µM	–[9.22 µM]
CCCN=C(C)c1c(-c2ccccc2)[nH]n(-c2nc3ccccc3s2)c1=O	–	–	–	–	?	–
COC(=O)Cc1[nH]n(-c2nc3ccccc3s2)c(=O)c1C(C)=Nc1ccc(C)cc1	–	?	–	56.2µM	14.1µM	·
COC(=O)Cc1[nH]n(-c2nc3ccccc3s2)c(=O)c1C(C)=Nc1ccc(Cl)cc1	·	35.5µM	–	79.4µM	–	·
CCC/C=C(\CCC)C(NS(=O)(=O)CC12CCC(CC1=O)C2(C)C)c1ccc(C(=O)OC)cc1 (configuration not stated)	10µM	–	·	?	·	·
CCC/C=C(\CCC)C(NS(=O)(=O)c1ccc(Cl)cc1)c1ccc(C(=O)OC)cc1 (configuration not stated)	?	–	·	–	·	·
NC(=O)C1CCN(C(=O)Cc2ccsc2)CC1	·	·	–	–	39.8µM	·
Cc1ccc(/C=C2\NC(=S)NC2=O)cc1[N+](=O)[O-]	–	–	–	–	–	·
O=C1NC(=S)N/C1=C/c1cc([N+](=O)[O-])ccc1O	5.01µM	–	–	?	11.2µM	–
C[C@@H]1C2CC(C/C2=N\NC(=O)c2ccncc2)C1(C)C (some centres not stated)	·	·	–	–	–[0.0925 µM]	·
Cc1onc(-c2ccccc2)c1C(=O)Nc1ncc([N+](=O)[O-])s1	·	·	?	–	44.7µM	·
SMILES	ALDH1A1 block	JMJD2E inh	miR-21 reporter	Sfp PPTase inh	G9a block	LMNA splice mod
Cc1onc(-c2ccccc2)c1C(=O)Nc1nnc(C(C)C)s1	·	·	–	–	·	·
Cc1cc(-c2onc3ccc(Cl)cc23)ccc1O	·	·	–	–	39.8µM	·
CCCCc1c(O)n(-c2ccccc2)[nH]c1=O	–	·	·	–	11.2µM	·
Cc1ccc2[nH]cc(C(=O)CN3CCN(c4ccccn4)CC3)c2c1	?	–	–	–	50.1µM	–
Cc1ccc(C(=O)CN2CCN(c3ccccn3)CC2)c(C)c1	·	·	–	–	39.8µM	·
Cc1ccc2[nH]cc(C(=O)CN3CCN(C)CC3)c2c1	–	–	–	–	·	–
Nc1c(Cl)ncnc1N/N=C/c1cccc(O)c1	·	–	–	56.2µM	–[12.7 µM]	·
COc1cccc(/C=N/Nc2cc(-n3nc(C)cc3-c3ccccc3)ncn2)c1O	–	–	–	–	–	?
COc1cccc(/C=N/Nc2ncnc3scc(-c4ccccc4)c23)c1O	–	14.1µM	–	?	?	?
Clc1ccc(/C=N/Nc2ncnc3ccccc23)cc1Cl	–	–	–	–	·	?
COc1cccc(/C=N/Nc2ncnc(Cl)c2N)c1O	–	25.1µM	–	–	–	?
COc1cccc(/C=N/Nc2nccnc2Cl)c1O	–	?	–	–	–[12.7 µM]	·
Clc1cncc(Cl)c1N/N=C/c1ccncc1	–	–	–	–	–	–
Nc1c(Cl)ncnc1N/N=C/c1ccncc1	·	–	–	79.4µM	44.7µM	·
COC(=O)C(CN)c1c[nH]c2ccc(OC)cc12 (configuration not stated)	–	·	·	?	–	·
Cc1cc(C)cc(C(=O)OCC(=O)Nc2ncccn2)c1	·	·	·	·	–[12.7 µM]	·
COc1ccc(/C=N/Nc2ncnc(Cl)c2N)cc1OC	?	–	–	31.6µM	50.1µM	–
COc1ccc(/C=N/Nc2ncnc3sc4c(c23)CCCC4)cc1OC	–	–	–	–	–	–
O=c1c(-c2ccccc2)nc2cnc(Oc3ccccc3)nc2n1Cc1cccs1	?	·	·	–	–[12.7 µM]	·
CCc1ccc(C(=O)c2cn(CC(=O)NCc3ccc(C)cc3)c3nc(C)ccc3c2=O)cc1	·	·	–	·	–	·
